Common to all, as to assay: Anti-proliferation assay (ATPLite), Chalice synergy score
Assay type in all cases: cell-based

For one assay, the system named is HCC-1500. As to conditions: Compound 1 in combination with the named second active agent, 72 h, mean of n = 3 experiments in triplicate. The source says: (§1) Cells were thawed from a liquid nitrogen preserved state.
(§2) The calculation for synergy score is provided below.
(§3) If T≧V0:100*[1−(T−V0)/(V−V0)]

Another assay concerns MDA-MB-468. Conditions: Compound 1 in combination with second active agent, mean self-cross + 2σ threshold 4.66.
Excerpt: as §1, §2, §3

A further assay concerns MDA-MB-231. As to conditions: Compound 1 in combination with second active agent, mean self-cross + 2σ threshold 2.61.
Excerpt: as §1, §2, §3

In the next assay the test system is Hs-578-T. Conditions: Compound 1 in combination with second active agent, mean self-cross + 2σ threshold 4.09.
Excerpt: as §1, §2, §3

Another assay relates to MDA-MB-436. Conditions: Compound 1 in combination with second active agent, mean self-cross + 2σ threshold 1.91.
Excerpt: as §1, §2, §3

Where a name gives a salt, the structure may show the parent alone.

`C[C@@H](Oc1cc(-c2cnn(C3CCNCC3)c2)cnc1N)c1c(Cl)ccc(F)c1Cl` [Crizotinib]: the Synergy score in the assay on HCC-1500 stood at 1.76; with MDA-MB-468, 1.41.

Consider `COc1cccc2c1C(=O)c1c(O)c3c(c(O)c1C2=O)C[C@@](O)(C(=O)CO)C[C@@H]3O[C@H]1C[C@H](N)[C@H](O)[C@H](C)O1` [Doxorubicin Hcl, Doxorubicin HCl], for which the Synergy score with MDA-MB-231 is reported as 6.45.

In the case of `C=CC(=O)N1CCC[C@@H](n2nc(-c3ccc(Oc4ccccc4)cc3)c3c(N)ncnc32)C1` [PCI-32765], the Synergy score in the assay with Hs-578-T is reported as 1.04.

On to `CNC(=O)c1cc(Oc2ccc(NC(=O)Nc3ccc(Cl)c(C(F)(F)F)c3)cc2)ccn1` [Sorafenib], for which the Synergy score with MDA-MB-436 was 1.35.

Values taken from US9737535B2, “Methods for treating cancer using TOR kinase inhibitor combination therapy comprising administering substituted pyrazino[2,3-b]pyrazines” (Signal Pharmaceuticals, LLC, priority 2014, dated 2017).
